Test results from PubChem BioAssay (NCATS).
“And” between values parts separate entries of the source, which are not always exact repeats. Equal values may be shown once. The list shows a part of the results, in another mix than the full data. Inconclusive results are not listed. The source made the active and inactive calls. Calls come from the whole dose curve; as a rule, active = well fitted curve in the direction sought with a large enough effect; inconclusive = small, poorly fitted or top-dose-only effect, or another doubt; inactive = no such curve, though single readings can be large; an effect the other way counts as inactive or inconclusive.

Chains of the proteins cited; added tags and fusions are not shown.
UniProt P24462, whole entry: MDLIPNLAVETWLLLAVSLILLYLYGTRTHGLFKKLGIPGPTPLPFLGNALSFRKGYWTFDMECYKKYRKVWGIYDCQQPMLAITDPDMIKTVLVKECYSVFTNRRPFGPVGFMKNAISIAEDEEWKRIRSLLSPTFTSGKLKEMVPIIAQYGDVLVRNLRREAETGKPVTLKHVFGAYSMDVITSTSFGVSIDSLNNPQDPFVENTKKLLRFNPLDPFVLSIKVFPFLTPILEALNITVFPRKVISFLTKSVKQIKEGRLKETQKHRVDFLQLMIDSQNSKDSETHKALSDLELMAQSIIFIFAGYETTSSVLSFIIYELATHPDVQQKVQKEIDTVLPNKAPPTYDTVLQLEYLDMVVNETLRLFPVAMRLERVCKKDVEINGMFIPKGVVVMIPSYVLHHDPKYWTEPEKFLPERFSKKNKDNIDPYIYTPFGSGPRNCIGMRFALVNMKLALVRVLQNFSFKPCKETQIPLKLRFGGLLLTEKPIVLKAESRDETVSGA

Assays:
[1] = target: Cytochrome P450 3A7 (Homo sapiens) (UniProt P24462); assay: Cytochrome P450 family 3 subfamily A member 7 (CYP3A7) small molecule antagonists: luciferase qHTS assay (AID 1963596; note: nearly all actives have a fitted effect of over 40% in size; note: potency is the fitted concentration of half-maximal effect)
Excerpt: National Center for Advancing Translational Sciences [NCATS] Assay Overview: Cytochrome P450 (CYP) enzymes are membrane-bound hemeproteins that play a key role in metabolism of drugs and xenobiotics. The CYP3A subfamily is the most abundant, representing 30% of the total adult hepatic CYP content, whereas CYP3A7 is found predominantly in human fetal liver and accounts up to 50% of the total fetal hepatic CYP content. Testing the effect of chemicals on CYP isozymes is useful to minimize the adverse drug reactions and toxicities in the drug development process. Chemicals were tested for their effect on CYP enzyme activities by using P450-Glo (TM) screening systems (Promega Corporation, Madison, WI). These systems provide a luminescent method containing proluciferin substrates and are converted to luciferin products by CYP isozymes. The luciferin products formed are detected with a luciferin detection reagent, and the amount of light produced is proportional to CYP activity. P450-Glo (TM) CYP3A7 screening system (Catalog. No. V8812) was used to detect the compounds that interfere with CYP3A7 activity. The positive control compound used for CYP3A7 assay is ketoconazole (Sigma-Aldrich, St. Louis, MO).
Assay Protocol Summary: Two ul of enzyme-substrate mix was dispensed into medium binding white/solid 1536-well plates (Greiner Bio-One North America Inc., Monroe, NC) using a Flying Reagent Dispenser (FRD, Aurora Discovery, San Diego, CA). Compounds dissolved in DMSO, and positive control (ketoconazole) were transferred to the assay plates at 23 nl using a Pintool station (Wako, San Diego, CA). The assay plates were incubated at room temperature for 10 min. Then 2 ul of NADPH regeneration solution was added to each well of the assay plates using an FRD and incubated at room temperature for 1 h. The reaction was stopped by adding 4 ul of detection reagent using an FRD and after 20 min incubation at room temperature the luminescence signal was measured using a ViewLux plate reader (Perkin Elmer, Shelton, CT). Data were expressed as relative luminescence units.

[2] = Viability qHTS for spleen associated tyrosine kinase inhibitor (SYKi) drug resistant MV4-11 cells (AID 1963824); conditions: SYKi-resistant MV4-11 viability, CellTiter-Glo, 72 h; note: potency is the fitted concentration of half-maximal effect; nearly all actives have a fitted effect of over 35% in size
Excerpt: Department of Medicine, Hematology/Oncology
University Hospital Frankfurt, Germany.
Trials have shown promising clinical activity of the selective SYK inhibitor entospletinib in patients with high expressing HOXA9/MEIS1 acute leukemias. As the development of resistance mechanisms is a common problem in the use of targeted drugs, we performed a chemical library screen to identify drug sensitivities in SYK inhibitor resistant AML cells. […] Glucocorticoids are potent immunosuppressants which work in part by inhibiting the transcription of cytokine genes.
Described herein is a viability screen to look for activity in the SYK inhibitor drug resistant cell line against four NCATS compound libraries (MIPE 5.0, NPC, NPACT, and Kinase) totaling 11372 compounds. Active hits were reacquired for confirmation and further secondary assay testing.
SEQUENCE No. (e.g., 1, 2, 3, etc.); […] (e.g., Cells, Incubation, Reagent, etc.); VALUE; DESCRIPTION.
1; Media; 2uL; white, solid-bottom Corning assay plate.
2; Compounds; 23nL; Echo acoustic dispenser. […]
7; Detection; Luminescence; ViewLux plate reader (PerkinElmer). […]
1. Quantitative high-throughput screening (qHTS) of small molecule compounds was conducted on drug resistant SYKi MV4-11 cell line. […]
5. Viability was assessed by adding 3uL of CellTiter-Glo detection reagent (Promega). […]
7. Luminescence was measured on a ViewLux plate reader (PerkinElmer).

[3] = Cellular viability qHTS for adrenocortical cancer (ACC) cell line SW-13 (AID 1963989); conditions: SW-13 ACC cells viability, CellTiter-Glo, 48 h; hits give low values;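 note: cells grown in serum-free medium with ITS supplement; % is set by controls: 0 for no effect and ±100 for the full control effect; nearly all actives have a fitted effect of over 65% in size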
Excerpt: PI: Naris Nilubol, MD Surgical Oncology Program, National Cancer Institute (NCI) National Institute of Health (NIH), Bethesda, Maryland Adrenocortical cancer (ACC) is a rare malignancy with poor survival outcomes and few treatment options. Currently, mitotane is the only FDA-approved therapy for ACC. Although adjuvant radiation therapy is rarely utilized, it has the potential to improve survival in select cases. Through a quantitative high-throughput drug screen (qHTS), we identified auranofin (AF), a thioredoxin reductase (TXNRD) inhibitor, as a promising candidate drug. This study aims to evaluate whether AF can enhance the efficacy of radiation therapy in the treatment of ACC. Two human ACC cell lines, SW-13 and NCI-H295R, were screened using the National Center for Advancing Translational Sciences (NCATS) Pharmaceutical Collection (NPC) and the Mechanism Interrogation PlatE (MIPE) library (~4,991 compounds). […]
PROTOCOL TABLE (as described by Inglese J, Shamu CE and Guy RK. 2007) SEQUENCE No. (e.g., 1, 2, 3, etc.); […] […] 7; Detection; Luminescence; ViewLux plate reader NOTES (numbers refer to Sequence numbers above) 1. […] After incubation, luminescence was measured using a ViewLux plate reader (PerkinElmer, Waltham, MA, USA) with a clear filter was used to measure the number of metabolically competent cells. […]

[4] = Cellular viability qHTS for adrenocortical cancer (ACC) cell line NCI-H295R (AID 1963990); conditions: CellTiter-Glo ATP luminescence, 48 h; at 92.7 µM (top of the series);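 note: 0% = DMSO only wells and -100% = full killing with cytotoxic reference compound; nearly all actives have a fitted effect of over 60% in size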
Outline: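 CellTiter-Glo ATP luminescence, read 48 h after compound addition, measured viability of NCI-H295R adrenocortical cells grown serum-free with ITS. Final concentrations spanned up to 46 uM. Data normalized to DMSO and doxorubicin, fitted for IC50 and maximal response.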

Structure (SMILES)	Potency [1]	Potency [2]	activity (max response) [3]	activity change, negative = viability loss [4]
CCC(=O)N(c1ccccc1)C1(COC)CCN(CCc2cccs2)CC1	active: 2.24 µM	active: 38.6 µM	–	–
CN(CCCl)CCCl	inactive	–	inactive: 2.06% and inactive: -11.9%	–
CCC(=O)N(c1ccccc1)C1(COC)CCN(CCn2nnn(CC)c2=O)CC1	active: 2.47 µM	–	inactive: -6.46%	inactive: -10.5%
